Experimental data as given in US20170247393A1, “Aminoisoxazoline Compounds as Agonists of Alpha7-Nicotinic Acetylcholine Receptors” (Forum Pharmaceuticals, Inc., priority 2015, published 2017).

By UniProt entry, the sequences of proteins in these tests, tags left out. Residues count along the entry.
UniProt P36544, 23-502 limits assumed: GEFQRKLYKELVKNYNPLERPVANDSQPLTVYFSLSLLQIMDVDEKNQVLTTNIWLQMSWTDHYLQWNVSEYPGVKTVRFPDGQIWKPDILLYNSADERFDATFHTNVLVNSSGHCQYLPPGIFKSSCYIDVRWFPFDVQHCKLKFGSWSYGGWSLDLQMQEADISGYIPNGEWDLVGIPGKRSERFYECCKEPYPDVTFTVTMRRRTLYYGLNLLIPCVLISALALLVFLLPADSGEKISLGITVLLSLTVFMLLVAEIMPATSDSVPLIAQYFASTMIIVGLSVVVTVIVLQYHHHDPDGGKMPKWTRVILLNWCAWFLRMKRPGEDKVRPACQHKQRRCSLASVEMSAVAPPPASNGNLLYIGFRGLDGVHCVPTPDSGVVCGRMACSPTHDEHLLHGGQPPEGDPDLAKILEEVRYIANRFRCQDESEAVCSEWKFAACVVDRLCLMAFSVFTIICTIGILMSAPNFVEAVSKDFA

Biological target: human α7 nAChR (Homo sapiens, UniProt P36544)
Assay: Human α7 nAChR binding assay ([125I]-αBungarotoxin competition binding, Cerep)
Conditions: read-out: h- α7 Ki; SH-SY5Y membranes expressing human α7 nAChR, 0.05 nM [125I]-αBgt, 120 min at 37° C.

| SMILES | Ki [nM] |
| --- | --- |
| COc1cc(NC2=NO[C@@]3(C2)CN2CCC3CC2)ccc1C1CC1 | 4500 |
| COc1cc(NC2=NO[C@@]3(C2)CN2CCC3CC2)ccc1Cl | 1200 |
| Cc1cc2cc(NC3=NO[C@@]4(C3)CN3CCC4CC3)ccc2o1 | 470 |
| Cc1nc2cc(NC3=NO[C@@]4(C3)CN3CCC4CC3)ccc2n1C | 12000 |
| Cc1nc2ccc(NC3=NO[C@@]4(C3)CN3CCC4CC3)cc2n1C | 1400 |
| Cc1nc2ccc(NC3=NO[C@@]4(C3)CN3CCC4CC3)cc2o1 | 770 |
| Clc1cc(Cl)c2sc(NC3=NO[C@@]4(C3)CN3CCC4CC3)nc2c1 | 1300 |
| Clc1cc(NC2=NO[C@@]3(C2)CN2CCC3CC2)cc(Cl)c1Cl | 2900 |
| Clc1cc(NC2=NO[C@@]3(C2)CN2CCC3CC2)ccc1C1CC1 | 630 |
| Clc1cc2c(Cl)coc2cc1NC1=NO[C@@]2(C1)CN1CCC2CC1 | 4200 |
| Clc1ccc(NC2=NO[C@@]3(C2)CN2CCC3CC2)cc1C1CC1 | 1000 |
| Clc1ccc2nc(NC3=NO[C@@]4(C3)CN3CCC4CC3)sc2c1Cl | 1500 |
| Clc1cccc2sc(NC3=NO[C@@]4(C3)CN3CCC4CC3)nc12 | 620 |
| Clc1cccc2sc(NC3=NO[C@]4(C3)CN3CCC4CC3)nc12 | 17000 |
| Cn1c(NC2=NO[C@@]3(C2)CN2CCC3CC2)nc2ccccc21 | > 30000 |
| Cn1cnc2cc(NC3=NO[C@@]4(C3)CN3CCC4CC3)ccc21 | 1600 |
| Cn1cnc2ccc(NC3=NO[C@@]4(C3)CN3CCC4CC3)cc21 | 1700 |
| FC(F)(F)c1cc(NC2=NO[C@@]3(C2)CN2CCC3CC2)ccc1Cl | 750 |
| FC(F)(F)c1ccc(NC2=NO[C@@]3(C2)CN2CCC3CC2)cc1Cl | 1700 |
| FC(F)(F)c1ccc2sc(NC3=NO[C@@]4(C3)CN3CCC4CC3)nc2c1 | 560 |
| FC(F)(F)c1csc2cc(NC3=NO[C@@]4(C3)CN3CCC4CC3)ccc12 | 770 |

| SMILES | Ki [nM] |
| --- | --- |
| FC1(F)Oc2ccc(NC3=NO[C@@]4(C3)CN3CCC4CC3)cc2O1 | 950 |
| Fc1cc2nc(NC3=NO[C@@]4(C3)CN3CCC4CC3)sc2c(F)c1Cl | 440 |
| Fc1cc2sc(NC3=NO[C@@]4(C3)CN3CCC4CC3)nc2c(F)c1F | 2100 |
| Fc1cc2sc(NC3=NO[C@@]4(C3)CN3CCC4CC3)nc2cc1Cl | 340 |
| N#Cc1ccc2sc(NC3=NO[C@@]4(C3)CN3CCC4CC3)nc2c1 | 660 |
| c1ccc2ncc(NC3=NO[C@@]4(C3)CN3CCC4CC3)cc2c1 | 2400 |
| c1nc(NC2=NO[C@@]3(C2)CN2CCC3CC2)cc2c1CCCC2 | > 30000 |
| c1nc(NC2=NO[C@]3(C2)CN2CCC3CC2)cc2c1CCCC2 | > 30000 |
| c1cc2c(NC3=NOC4(C3)CN3CCC4CC3)ncnn2c1 (racemic) | 18000 |
| c1ccc2c(NC3=NOC4(C3)CN3CCC4CC3)n[nH]c2c1 (racemic) | 1000 |
| c1ccc2sc(NC3=NOC4(C3)CN3CCC4CC3)cc2c1 (racemic) [rac-12, (+/−)-N-(benzo[b]thiophen-2-yl)-4H-1′-azaspiro[isoxazole-5,3′-bicyclo[2.2.2]octan]-3-amine] | 62 |
| c1cc2c(NC3=NOC4(C3)CN3CCC4CC3)ncnn2c1 (single isomer, unassigned) | > 30000 |
| c1cc2nc(NC3=NOC4(C3)CN3CCC4CC3)ccc2o1 (single isomer, unassigned) | > 30000 |
| c1ccc(NC2=NOC3(C2)CN2CCC3CC2)nc1 (single isomer, unassigned) | > 30000 |
| c1ccc2c(NC3=NOC4(C3)CN3CCC4CC3)n[nH]c2c1 (single isomer, unassigned) | > 30000 |
| c1ccc2nc(NC3=NOC4(C3)CN3CCC4CC3)ccc2c1 (single isomer, unassigned) | > 30000 |
| Clc1cccc2nc(NC3=NO[C@@]4(C3)CN3CCC4CC3)sc12 [(R)-11, (R)—N-(7-chlorobenzo[d]thiazol-2-yl)-4H-1′-azaspiro[isoxazole-5,3′-bicyclo[2.2.2]octan]-3-amine] | 210 |
| Clc1ccc2cnc(NC3=NO[C@@]4(C3)CN3CCC4CC3)cc2c1 [(R)-18, (R)—N-(6-chloroisoquinolin-3-yl)-4H-1′-azaspiroksoxazole-5,3^1-bicyclo[2.2.2]octan1-3-amine hydrochloride] | 175 |
| Clc1ccc2cc(NC3=NO[C@@]4(C3)CN3CCC4CC3)ncc2c1 [(R)-19, (R)—N-(7-chloroisoquinolin-3-yl)-4H-1′-azaspiro[isoxazole-5,3′-bicyclo[2.2.2]octan]-3-amine hydrochloride] | 143 |
| Clc1ccc(NC2=NO[C@@]3(C2)CN2CCC3CC2)cc1 [(R)-20, (R)—N-(4-chlorophenyl)-4H-1′-azaspiro[isoxazole-5,3′-bicyclo[2.2.2]octan]-3-amine hydrochloride] | 195 |
| c1ccc2nc(NC3=NO[C@@]4(C3)CN3CCC4CC3)ncc2c1 [(R)-22, (R)—N-(quinazolin-2-yl)-4H-1′-azaspiro[isoxazole-5,3′-bicyclo[2.2.2]octan]-3-amine hydrochloride] | 250 |

| SMILES | Ki [nM] |
| --- | --- |
| Clc1cccc2cc(NC3=NO[C@@]4(C3)CN3CCC4CC3)ncc12 [(R)-23, (R)—N-(8-chloroisoquinolin-3-yl)-4H-1′-azaspiroksoxazole-5,3^1-bicyclo[2.2.2]octan1-3-amine hydrochloride] | 400 |
| Clc1cccc2cnc(NC3=NO[C@@]4(C3)CN3CCC4CC3)cc12 [(R)-24, (R)—N -(5-chloroisoquinolin-3-yl)-4H-1′-azaspiroksoxazole-5,3′-bicyclo[2.2.2]octan1-3-amine hydrochloride] | 890 |
| Cc1ccc2sc(NC3=NO[C@@]4(C3)CN3CCC4CC3)nc2c1 [(R)-25, (R)—N -(5-methylbenzo[d]thiazol-2-yl)-4H-1′-azaspiro[isoxazole-5,3′-bicyclo[2.2.2]octan]-3-amine hydrochloride] | 68 |
| c1cc2sc(NC3=NO[C@@]4(C3)CN3CCC4CC3)nc2cc1C1CC1 [(R)-26, (R)—N -(5-cyclopropylbenzo[d]thiazol-2-yl)-4H-1′-azaspiro[isoxazole-5,3′-bicyclo[2.2.2]octan]-3-amine hydrochloride] | 86 |
| Fc1ccc2sc(NC3=NO[C@@]4(C3)CN3CCC4CC3)nc2c1 [(R)-27, (R)—N-(5-fluorobenzo[d]thiazol-2-yl)-4H-1′-azaspiro[isoxazole-5,3′-bicyclo[2.2.2]octan]-3-amine hydrochloride] | 230 |
| Clc1cc2nc(NC3=NO[C@@]4(C3)CN3CCC4CC3)sc2cc1Cl [(R)-30, (R)—N-(5 ,6 - dichlor obenzo[d]thiazol-2-yl)-4H-1′-azaspiro[isoxazole-5,3′-bicyclo[2.2.2]octan]-3-amine hydrochloride] | 80 |
| Clc1cccc(NC2=NO[C@@]3(C2)CN2CCC3CC2)c1 [(R)-34, (R)—N-(3-chlorophenyl)-4H-1′-azaspiro[isoxazole-5,3′-bicyclo[2.2.2]octan]-3-amine hydrochloride] | 640 |
| Cc1cc2ccc(NC3=NO[C@@]4(C3)CN3CCC4CC3)cc2o1 [(R)-40, (R)—N-(2-methylbenzofuran-6-yl)-4H-1′-azaspiro[isoxazole-5,3′-bicyclo[2.2.2]octan]-3-amine hydrochloride] | 47 |
| Cc1cc2ccc(NC3=NO[C@@]4(C3)CN3CCC4CC3)cc2s1 [(R)-42, (R)—N-(2-methylbenzo[b]thiophen-6-yl)-4H-1′-azaspiro[isoxazole-5,3′-bicyclo[2.2.2]octan]-3-amine hydrochloride] | 66 |
| Cc1cc2cc(NC3=NO[C@@]4(C3)CN3CCC4CC3)ccc2s1 [(R)-43, (R)—N-(2-methylbenzo[b]thiophen-5-yl)-4H-1′-azaspiro[isoxazole-5,3′-bicyclo[2.2.2.]octan]-3-amine hydrochloride] | 210 |
| Fc1ccc2cc(NC3=NO[C@@]4(C3)CN3CCC4CC3)ncc2c1 [(R)-44, (R)—N-(7-fluoroisoquinolin-3-yl)-4H-F-azaspiro[isoxazole-5,3^1-bicyclo[2.2.2]octan]-3-amine hydrochloride] | 390 |
| Fc1ccc2cnc(NC3=NO[C@@]4(C3)CN3CCC4CC3)cc2c1 [(R)-45, (R)—N-(6-fluoroisoquinolin-3-yl)-4H-1′-azaspiro[isoxazole-5,3′-bicyclo[2.2.2]octan]-3-amine hydrochloride] | 225 |
| COc1ccc2cc(NC3=NO[C@@]4(C3)CN3CCC4CC3)ncc2c1 [(R)-46, (R)—N-(7-methoxyisoquinolin-3-yl)-4H-1′-azaspiro[isoxazole-5,3′-bicyclo[2.2.2]octan]-3-amine hydrochloride] | 1800 |
| COc1ccc2cnc(NC3=NO[C@@]4(C3)CN3CCC4CC3)cc2c1 [(R)-47, (R)—N-(6-methoxyisoquinolin-3-yl)-4H-1′-azaspiro[isoxazole-5,3′-bicyclo[2.2.2]octan]-3-amine hydrochloride] | 335 |
| Clc1ccc2nc(NC3=NO[C@@]4(C3)CN3CCC4CC3)ncc2c1 [(R)-48, (R)—N-(6-chloroquinazolin-2-yl)-4H-1′-azaspiro[isoxazole-5,3′-bicyclo[2.2.2]octan]-3-amine hydrochloride] | 42.5 |
| Clc1ccc2cnc(NC3=NO[C@@]4(C3)CN3CCC4CC3)nc2c1 [(R)-49, (R)—N-(7-chloroquinazolin-2-yl)-4H-1′-azaspiro[isoxazole-5,3′-bicyclo[2.2.2]octan]-3-amine] | 43 |
| Cc1nc2ccc(NC3=NO[C@@]4(C3)CN3CCC4CC3)cc2s1 [(R)-50, (R)—N-(2-methylbenzo[d]thiazol-6-yl)-4H-1′-azaspiro[isoxazole-5,3′-bicyclo[2.2.2]octan]-3-amine hydrochloride] | 205 |
| Cc1cc2cnc(NC3=NO[C@@]4(C3)CN3CCC4CC3)nc2s1 [(R)-52, (R)—N-(6-methylthieno[2,3-d]pyrimidin-2-yl)-4H-1′-azaspiro[isoxazole-5,3′-bicyclo[2.2.2]octan]-3-amine hydrochloride] | 37.5 |
| Cc1cc2ccc(NC3=NO[C@@]4(C3)CN3CCC4CC3)nc2s1 [(R)-53, (R)—N-(2-methylthieno[2,3-b]pyridin-6-yl)-4H-1′-azaspiro[isoxazole-5,3′-bicyclo[2.2.2]octan]-3-amine hydrochloride] | 25 |

Where a name gives a salt, the structure may show the parent alone.
